Molecular target: patatin-17 (pat17) (Solanum cardiophyllum, UniProt Q8LPW4)
Assay: phenyl valerate hydrolase inhibition, spectrophotometric at […] nm
Details: read-out: 20 min IC50 (μM) ^1; covalent (Ser77); 20 min preincubation, 37 °C, pH 7.4; racemic inhibitor; crystal holds non-aged (S)-adduct

Amino acid sequences for entries named in this document (tags omitted). Residues count along the entry.
UniProt Q8LPW4, 24-386 limits assumed: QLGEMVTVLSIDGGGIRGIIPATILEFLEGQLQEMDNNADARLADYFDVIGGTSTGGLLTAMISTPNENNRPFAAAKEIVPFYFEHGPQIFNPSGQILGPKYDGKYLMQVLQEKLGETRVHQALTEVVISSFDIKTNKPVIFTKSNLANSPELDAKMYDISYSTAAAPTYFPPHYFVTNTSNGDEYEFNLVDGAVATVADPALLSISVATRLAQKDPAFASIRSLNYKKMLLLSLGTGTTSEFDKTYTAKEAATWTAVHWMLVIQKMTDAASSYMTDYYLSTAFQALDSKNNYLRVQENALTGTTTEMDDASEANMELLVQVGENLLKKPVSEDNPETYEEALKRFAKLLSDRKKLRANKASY

Question: CCCCC/C=C\C/C=C\C/C=C\C/C=C\CCCCP(=O)(F)OC (racemic) was tested. Which IC50 did it give?
Answer: The IC50 was 0.116 µM.

From paper PMC4172759, “Crystal Structure of Patatin-17 in Complex with Aged and Non-Aged Organophosphorus Compounds” (2014)
